The results in this text go back to patent US8084621B2, “3-Pyrrolo[b]cyclohexylene-2-dihydroindolinone derivatives and uses thereof” (Jiangsu Simcere Pharmaceutical R&D Co. Ltd., priority 2006, dated 2011).

A word on the IC50: it is the concentration that gives 50% inhibition. Read a high IC50 as lower potency.

Test [1] concerns Human Pancreatic Carcinoma Cell Line (BXPC-3). Kind of test: Tumor cell proliferation assay (MTT), BXPC-3. The format is cell-based. To be noted: secondary screening, 48 hours. An excerpt:
(§1) The assay used generally is the blue tetrazolium bromide (MTT) method. […] The amount of formazan can be detected by the microplate reader through the absorption value at 570 nm. The amount of formazan product generated is proportional to the number of living cells in the sample, so the OD value may reflect the number of living cells and the ability of a test drug to inhibit or kill cells. The MTT assay may be used in determining the ability of different compounds of the present invention to inhibit one or more cancer cells proliferation. Similar assays can be designed along the same lines for any cancer cell using techniques well known in the art.
(§2) The assay used generally is the blue tetrazolium bromide (MTT) method. […] Intracellular purple formazan salt crystals can be solved in DMSO and the absorption value at 570 nm is detected by the microplate reader, then the number of living cells can be detected indirectly. […]
(§3) 2.3.3 Preliminary screening: The compounds are firstly diluted to 0.1 mol/L with DMSO, and then diluted to three concentrations of 10^−5 mol/L, 10^−6 mol/L and 10^−7 mol/L. Add 20 ul test compounds to the 96 well plate and incubate for 72 hours. […] Each inhibition ratio is calculated, then an average value of three times is taken as the measured value. […] 2.3.5 Reading the plates: read the absorbance A570-A630 with the Infinite M200 microtiter plate reader. […]

The subject of test [2] is Human Colon Cancer Cell Line (HT-29). Nature of the test: Tumor cell proliferation assay (MTT), HT29. The format is cell-based. The note with it: secondary screening, 48 hours.
From the text: as §1, §2, §3

Regarding `CCN(CC)CCNC(=O)c1c(C)[nH]c2c1CCC/C2=C1/C(=O)Nc2ccc(C)cc21` [I-4, N-(2-(diethylamino)ethyl)-2-methyl-7-[1,2-dihydro-5-methyl-2-oxo-3H-indol-(Z)-3-ylidene]-4,5,6,7-tetrahydro-1H-indole-3-carboxamide], the half-maximal inhibitory concentration (IC50) is 2430 nM in test [1] and 1730 nM in test [2].
